This note sets out measurements from BindingDB's records for doi:10.1021/cb400150c (The University of Tokyo, 2013).

The structures appear in SMILES notation.

One assay deals with T1, Ectonucleotide pyrophosphatase/phosphodiesterase family member 2 (Mus musculus, UniProt Q9R1E6).
Assay: not given
Consider `COc1ccc(C(=O)/C=C/c2ccc(ON=O)cc2)cc1CSCC(=O)O` [ATX inhibitor 2], for which the IC50 – broadly, the concentration that inhibits the measured activity by half – is 420 nM. This lies in the sub-micromolar range.

For the compound `NS(=O)(=O)c1cc(C(=O)OCc2ncc(-c3ccc(F)cc3)o2)ccc1Cl` [ATX inhibitor 3], half-maximal inhibition (IC50) required 560 nM.

In the case of `Cc1cc(C)c(C)c(S(=O)(=O)N2CCN(C(=O)NCCCn3ccnc3)CC2)c1C` [ATX inhibitor 4], the IC50 came out at 1100 nM.

As for `NS(=O)(=O)c1ccc(Nc2nc(-c3ccc(O)c(O)c3)cs2)cc1` [ATX inhibitor 6], the concentration for half-maximal inhibition (IC50) turned out to be 1000 nM. The IC50 values of the last two compounds are within 1.5-fold of each other.

`CCCCCCCN=Cc1c(O)n(-c2ccc(F)cc2)c(=O)[nH]c1=O` [ATX inhibitor 7] returned an IC50 of 250 nM. Compared with the last compound, the IC50 is about 4-fold lower.

As to `Cc1nc2ccccn2c(=O)c1Cc1ccc(Cl)cc1` [ATX inhibitor 8], the midpoint of inhibition, the IC50, lay at 300 nM. This IC50 and that of the compound before are within 1.5-fold of each other.

`CCN1CCN(C2=NC(=O)/C(=C/c3ccc(Cl)cc3)S2)CC1` [ATX inhibitor 9] gave an IC50 of 420 nM.

Take `O=C1N=C(N2CCNCC2)S/C1=C\c1ccc(Cl)c(Cl)c1` [ATX inhibitor 10 analogue 1]: half-maximal inhibition (IC50) required 170 nM.

The compound `O=C1N=C(N2CCN(CCCCS(=O)(=O)O)CC2)S/C1=C\c1ccc(Cl)c(Cl)c1` [ATX inhibitor 10 analogue 3] had an IC50 of 230 nM.

`O=C1N=C(N2CCN(Cc3ccc(B(O)O)cc3)CC2)S/C1=C\c1ccc(Cl)c(Cl)c1` [ATX inhibitor 10 analogue 6] yielded an IC50 of 22 nM.

`O=C1N=C(N2CCN(Cc3ccc(C(=O)O)cc3)CC2)S/C1=C\c1ccc(Cl)c(Cl)c1` [ATX inhibitor 10 analogue 7] returned an IC50 of 25 nM.

In turn, `O=C(O)CCCN1CCN(C2=NC(=O)/C(=C/c3ccc(Cl)c(Cl)c3)S2)CC1` [ATX inhibitor 10 analogue 9] came in with an IC50 of 400 nM.

With `O=C1N=C(N2CCN(CCCS(=O)(=O)O)CC2)S/C1=C\c1ccc(Cl)c(Cl)c1` [ATX inhibitor 10 analogue 10], the IC50 stood at 420 nM. This IC50 and that of the compound before are within 1.5-fold of each other.

Turning to `O=C1N=C(N2CCN(Cc3cccnc3)CC2)S/C1=C\c1ccc(Cl)c(Cl)c1` [ATX inhibitor 10 analogue 13], the midpoint of inhibition, the IC50, lay at 260 nM. This IC50 lies about 1.6-fold lower than the previous one.

Take `O=C1N=C(N2CCN(Cc3ccncc3)CC2)S/C1=C\c1ccc(Cl)c(Cl)c1` [ATX inhibitor 10 analogue 14]: the IC50 stood at 180 nM.

Take `COC(=O)C1=C(N)N(c2ccc(S(N)(=O)=O)cc2)C2=C(C(=O)CCC2)C1c1ccc(OC)c(OC)c1` (stereo unspecified) [ATX inhibitor 11]: it took 670 nM to reach half-maximal inhibition (IC50).

Take `C[C@]12CCC(=O)C=C1CC[C@H]1[C@@H]3CC[C@H](OC(=O)CCC(=O)NCCc4cnc[nH]4)C3CC[C@@H]12` (stereo partly specified) [ATX inhibitor 12]: the midpoint of inhibition, the IC50, lay at 1500 nM.

`CN(C)P(=NC(=S)Nc1cccc(S(N)(=O)=O)c1)(c1ccncc1)N(C)C` [ATX inhibitor 15] gave an IC50 of 790 nM.

Regarding `O=C1N=C(N2CCN(Cc3ccccc3B(O)O)CC2)S/C1=C\c1ccc(Cl)c(Cl)c1` [US8551988, 64], the IC50 was found to be 580 nM. The IC50 values of the last two compounds are within 1.5-fold of each other.

Another assay concerns the target T1, Ectonucleotide pyrophosphatase/phosphodiesterase family member 2. Kind of assay: ATX Inhibitory Selectivity Test. Here is the method: Inhibitory activities of hit compounds towards ENPP1-5 were calculated using pNP-TMP, and the inhibitory activities of hit compounds towards ENPP6 and 7 were calculated using pNPPC. The final concentration of these two absorption-based substrates was 100uM. Assay buffer (ENPP buffer, 37uL) and 500uM PNP-TMP or pNPPC (20uL) were dispensed into the 96-well microplate. 30uM samples (33uL) were added, followed by ENPP1-7 solution (10uL) into each well. Each well contained a total of 100uL. The plate was incubated for 2 hours and aborbance (405nm) was measured with a microplate reader.
`CN1CCN(C2=NC(=O)/C(=C/c3ccc(F)c(F)c3)S2)CC1` [Disubstituted aryl-Me ATX inhibitor 1] had an IC50 of 4200 nM.

As to `CN1CCN(C2=NC(=O)/C(=C/c3ccc(Cl)cc3Cl)S2)CC1` [Disubstituted aryl-Me ATX inhibitor 2], the IC50 was 3000 nM.

Consider `CN1CCN(C2=NC(=O)/C(=C/c3c(Cl)cccc3Cl)S2)CC1` [Disubstituted aryl-Me ATX inhibitor 5], for which half-maximal inhibition (IC50) required 11000 nM. Against the preceding compound, the IC50 is about 3.7-fold higher.

The compound `CN1CCN(C2=NC(=O)/C(=C/c3ccc(Br)c(Br)c3)S2)CC1` [Disubstituted aryl-Me ATX inhibitor 6] gave an IC50 of 200 nM.

Consider `CN1CCN(C2=NC(=O)/C(=C/c3cc(C(C)(C)C)cc(C(C)(C)C)c3)S2)CC1` [Disubstituted aryl-Me ATX inhibitor 8], for which the IC50 was determined as 45 nM.

`CN1CCN(C2=NC(=O)/C(=C/c3ccc(F)cc3)S2)CC1` [Monosubstituted aryl-Me ATX inhibitor 2] showed an IC50 of 16000 nM. Compared with the last compound, the IC50 is about 360-fold higher.

`CN1CCN(C2=NC(=O)/C(=C/c3ccccc3Cl)S2)CC1` [Monosubstituted aryl-Me ATX inhibitor 3] came in with an IC50 of 20000 nM.

Take `CN1CCN(C2=NC(=O)/C(=C/c3ccc(Br)cc3)S2)CC1` [Monosubstituted aryl-Me ATX inhibitor 6]: the IC50 came out at 450 nM.

In turn, `CN1CCN(C2=NC(=O)/C(=C/c3ccc(I)cc3)S2)CC1` [Monosubstituted aryl-Me ATX inhibitor 7] yielded an IC50 of 170 nM.

With `Cc1ccc(/C=C2\SC(N3CCN(C)CC3)=NC2=O)cc1` [Monosubstituted aryl-Me ATX inhibitor 8], the IC50 amounted to 1400 nM.

In the case of `CN1CCN(C2=NC(=O)/C(=C/c3cc(C(F)(F)F)cc(C(F)(F)F)c3)S2)CC1` [Monosubstituted aryl-Me ATX inhibitor 9], the IC50 was determined as 260 nM.

For `CN1CCN(C2=NC(=O)/C(=C/c3ccc(C(F)(F)F)cc3)S2)CC1` [Monosubstituted aryl-Me ATX inhibitor 10], the IC50 came to 210 nM.
